Target: T1, mouse GLP-1 receptor (Mus musculus, UniProt O35659)
T1 construct: mouse GLP-1 receptor endogenously expressed in βTC6 cells; endogenous in cells; host or cells: βTC6 cells
T1 sequence (O35659 22-463): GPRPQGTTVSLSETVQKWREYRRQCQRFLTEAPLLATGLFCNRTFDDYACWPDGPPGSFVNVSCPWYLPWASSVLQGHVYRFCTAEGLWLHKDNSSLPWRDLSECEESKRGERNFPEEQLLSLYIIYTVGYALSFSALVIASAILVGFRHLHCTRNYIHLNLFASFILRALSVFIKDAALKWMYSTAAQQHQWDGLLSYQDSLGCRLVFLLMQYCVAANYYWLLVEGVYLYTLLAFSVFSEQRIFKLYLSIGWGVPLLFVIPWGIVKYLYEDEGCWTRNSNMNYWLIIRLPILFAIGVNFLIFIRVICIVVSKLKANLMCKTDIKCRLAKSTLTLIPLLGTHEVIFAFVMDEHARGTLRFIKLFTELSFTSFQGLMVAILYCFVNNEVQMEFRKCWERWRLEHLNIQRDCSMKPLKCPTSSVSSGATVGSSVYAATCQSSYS
Test: GLP-1 functional assay: agonist activity by cAMP production (HTRF) in βTC6 cells
Type: cell-based
Procedure: For stimulated control measurement, separate assay wells contain 10 nM GLP-1(7-37) were utilized.
Following incubation, the cells were lysed and the fluorescence acceptor (D2-labeled cAMP) and fluorescence donor (anti-cAMP antibody labeled with europium cryptate) were added. […] The results are expressed as a percent of the control response to 10 nM GLP-1(7-37). The standard reference agonist is GLP-1(7-37), which was tested in each experiment at several concentrations to generate a concentration-response curve from which its EC50 value was calculated.
HTRF (Homogeneous Time-Resolved Fluorescence) principle. The HTRF technology is based on time resolved fluorescence energy transfer (TR-FRET), which occurs between long-lived fluorophore Europium or Terbium Cryptates, and EuK or Tb respectively, as a donor and the allophycocyanin XL665, d2 or Red as acceptor. Many compounds and proteins present in biological fluids or serum are naturally fluorescent, and the use of conventional, prompt fluorescence leads to serious limitations in assay sensitivity. The use of long-lived fluorophore combined with time-resolved detection (a delay between excitation and emission detection) minimizes prompt fluorescence interference.

| SMILES | EC50 |
| --- | --- |
| CC[C@H](C)[C@H](NC(=O)[C@H](Cc1ccccc1)NC(=O)[C@H](CCC(=O)O)NC(=O)[C@H](CCCCN)NC(=O)[C@H](C)NC(=O)NC[C@H](C)NC(=O)[C@H](CCC(N)=O)NC(=O)CNC(=O)[C@H](CCC(=O)O)NC(=O)[C@H](CC(C)C)NC(=O)[C@H](Cc1ccc(O)cc1)NC(=O)[C@H](CO)NC(=O)[C@H](CO)NC(=O)[C@@H](NC(=O)[C@H](CC(=O)O)NC(=O)[C@H](CO)NC(=O)[C@@H](NC(=O)[C@H](Cc1ccccc1)NC(=O)[C@@H](NC(=O)CNC(=O)[C@H](CCC(=O)O)NC(=O)[C@H](C)NC(=O)[C@@H](N)Cc1c[nH]cn1)[C@@H](C)O)[C@@H](C)O)C(C)C)C(=O)N[C@@H](C)C(=O)N[C@@H](Cc1c[nH]c2ccccc12)C(=O)N[C@@H](CC(C)C)C(=O)N[C@H](C(=O)N[C@@H](CCCCN)C(=O)NCC(=O)N[C@@H](CCCNC(=N)N)C(=O)NCC(=O)O)C(C)C [Compound 45] | 0.036 nM |
| CC[C@H](C)[C@H](NC(=O)[C@H](Cc1ccccc1)NC(=O)[C@H](CCC(=O)O)NC(=O)[C@H](CCCCN)NC(=O)[C@H](C)NC(=O)[C@H](C)NC(=O)[C@H](CCC(N)=O)NC(=O)CNC(=O)[C@H](CCC(=O)O)NC(=O)NC[C@H](Cc1ccc(O)cc1)NC(=O)[C@H](Cc1ccc(O)cc1)NC(=O)[C@H](CO)NC(=O)[C@H](CO)NC(=O)[C@@H](NC(=O)[C@H](CC(=O)O)NC(=O)[C@H](CO)NC(=O)[C@@H](NC(=O)[C@H](Cc1ccccc1)NC(=O)[C@@H](NC(=O)CNC(=O)[C@H](CCC(=O)O)NC(=O)[C@H](C)NC(=O)[C@@H](N)Cc1c[nH]cn1)[C@@H](C)O)[C@@H](C)O)C(C)C)C(=O)N[C@@H](C)C(=O)N[C@@H](Cc1c[nH]c2ccccc12)C(=O)N[C@@H](CC(C)C)C(=O)N[C@H](C(=O)N[C@@H](CCCCN)C(=O)NCC(=O)N[C@@H](CCCNC(=N)N)C(=O)NCC(=O)O)C(C)C [Compound 44] | 0.048 nM |
| CC[C@H](C)[C@H](NC(=O)[C@H](Cc1ccccc1)NC(=O)[C@H](CCC(=O)O)NC(=O)[C@H](CCCCN)NC(=O)[C@H](C)NC(=O)[C@H](C)NC(=O)[C@H](CCC(N)=O)NC(=O)CNC(=O)[C@H](CCC(=O)O)NC(=O)[C@H](CC(C)C)NC(=O)[C@H](Cc1ccc(O)cc1)NC(=O)[C@H](CO)NC(=O)[C@H](CO)NC(=O)[C@@H](NC(=O)[C@H](CC(=O)O)NC(=O)[C@H](CO)NC(=O)[C@@H](NC(=O)[C@H](Cc1ccccc1)NC(=O)[C@@H](NC(=O)CNC(=O)[C@H](CCC(=O)O)NC(=O)[C@H](C)NC(=O)NC[C@@H](N)Cc1c[nH]cn1)[C@@H](C)O)[C@@H](C)O)C(C)C)C(=O)N[C@@H](C)C(=O)N[C@@H](Cc1c[nH]c2ccccc12)C(=O)N[C@@H](CC(C)C)C(=O)N[C@H](C(=O)N[C@@H](CCCCN)C(=O)NCC(=O)N[C@@H](CCCNC(=N)N)C(=O)NCC(=O)O)C(C)C [Compound 12] | 280 nM |
